Assays:
UGT2B7 = target: T1, UGT2B7 (Homo sapiens, UniProt P16662); assay: Inhibition of UGT2B7 (zidovudine-N-glucuronidation)
T1 sequence (P16662 24-529): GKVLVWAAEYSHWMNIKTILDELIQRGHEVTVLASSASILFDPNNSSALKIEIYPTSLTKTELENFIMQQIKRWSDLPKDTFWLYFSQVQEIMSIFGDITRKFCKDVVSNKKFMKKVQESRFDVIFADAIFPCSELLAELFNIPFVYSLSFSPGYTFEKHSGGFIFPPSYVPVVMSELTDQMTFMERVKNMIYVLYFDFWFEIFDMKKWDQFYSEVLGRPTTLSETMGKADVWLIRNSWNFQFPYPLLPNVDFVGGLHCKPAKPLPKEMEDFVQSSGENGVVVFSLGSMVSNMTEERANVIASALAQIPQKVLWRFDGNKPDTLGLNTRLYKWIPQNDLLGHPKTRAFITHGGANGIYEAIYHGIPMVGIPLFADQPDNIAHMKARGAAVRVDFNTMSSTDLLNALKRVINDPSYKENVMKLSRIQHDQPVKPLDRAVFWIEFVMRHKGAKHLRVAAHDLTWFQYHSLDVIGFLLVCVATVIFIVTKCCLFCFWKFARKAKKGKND
Protocol: (§1) The final volume of solvent in incubations was 1%. In addition, emodin, atazanavir, and diclofenac were considered as positive controls for UGT1A10, UGT1A1, and UGT2B7, respectively.
(§2) Competitive inhibition, non-competitive inhibition, and mixed-type inhibition models were used to estimate the Ki values by nonlinear regression based on Eqs 6–8, respectively.

UGT1A10 = target: T2, UGT1A10 (Homo sapiens, UniProt Q9HAW8); assay: Inhibition of UGT1A10 (4-methylumbelliferone-O-glucuronidation)
T2 sequence (Q9HAW8 26-530): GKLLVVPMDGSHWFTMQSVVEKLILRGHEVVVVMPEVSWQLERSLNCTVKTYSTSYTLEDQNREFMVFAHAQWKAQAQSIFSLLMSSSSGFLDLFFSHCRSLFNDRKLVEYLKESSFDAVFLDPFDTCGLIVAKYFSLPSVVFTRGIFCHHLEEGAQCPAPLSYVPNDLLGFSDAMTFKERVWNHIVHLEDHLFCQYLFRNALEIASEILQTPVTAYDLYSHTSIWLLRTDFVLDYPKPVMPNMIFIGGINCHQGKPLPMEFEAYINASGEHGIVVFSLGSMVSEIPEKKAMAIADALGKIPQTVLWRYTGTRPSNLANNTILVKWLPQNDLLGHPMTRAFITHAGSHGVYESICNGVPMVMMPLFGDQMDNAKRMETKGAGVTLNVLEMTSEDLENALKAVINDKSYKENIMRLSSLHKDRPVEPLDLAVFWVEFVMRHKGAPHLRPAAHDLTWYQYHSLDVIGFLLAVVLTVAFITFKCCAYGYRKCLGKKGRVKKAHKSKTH
Protocol: as §1, §2

UGT1A1 = target: T3, UGT1A1 (Homo sapiens, UniProt P22309); assay: Inhibition of UGT1A1 (β-estradiol-3-O-glucuronidation)
T3 sequence (P22309 26-533): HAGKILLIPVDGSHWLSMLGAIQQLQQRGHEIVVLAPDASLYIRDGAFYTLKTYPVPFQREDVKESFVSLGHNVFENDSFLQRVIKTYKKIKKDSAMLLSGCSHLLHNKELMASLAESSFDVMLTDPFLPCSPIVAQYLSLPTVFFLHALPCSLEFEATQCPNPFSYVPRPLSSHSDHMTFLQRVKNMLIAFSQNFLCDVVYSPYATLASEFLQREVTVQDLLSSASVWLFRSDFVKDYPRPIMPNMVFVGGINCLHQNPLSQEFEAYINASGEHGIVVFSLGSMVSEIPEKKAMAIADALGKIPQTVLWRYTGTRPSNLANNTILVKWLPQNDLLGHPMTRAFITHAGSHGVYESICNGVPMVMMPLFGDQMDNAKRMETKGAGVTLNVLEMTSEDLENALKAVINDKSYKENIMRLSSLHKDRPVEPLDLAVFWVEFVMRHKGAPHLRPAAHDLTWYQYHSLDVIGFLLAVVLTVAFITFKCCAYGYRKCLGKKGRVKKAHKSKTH
Protocol: as §1, §2

## icariside II
UGT2B7; 10 μM, % of negative control
  residual activity (Figures 3G–I, UGT2B7): 46.34%
UGT2B7; UGT2B7, substrate AZT
  IC50: 10200 ± 1620 nM
  Ki: 2020 ± 260 nM
UGT1A10; 10 μM, % of negative control
  residual activity of UGT1A10: 34.22%
UGT1A10; UGT1A10, substrate 4-MU
  IC50: 4740 ± 570 nM
  Ki: 3260 ± 420 nM
UGT1A1; 10 μM, % of negative control
  remaining activity of UGT1A1: 5.80%
UGT1A1; UGT1A1, substrate E2
  IC50: 2470 ± 290 nM
  Ki: 1180 ± 210 nM
